According to published antibiotic growth screens (doi:10.1038/s41589-023-01349-8):
Some of the results follow.

The compounds below were run on A. baumannii ATCC 17978 (assay: relative growth (fraction of control); higher = less inhibition). Settings: 50 µM.
With `CN1CCN(c2cc3c(cc2F)c(=O)c(C(=O)O)cn3-c2ccc(F)cc2)CC1.Cl` the relative growth was 0.163. In the case of `Cc1c(C(=O)O)c(O)cc2c1C(=O)c1c(O)c(C3O[C@H](CO)[C@@H](O)[C@H](O)[C@H]3O)c(O)c(O)c1C2=O` (stereo partly specified), the relative growth is reported as 1.26. Compound `CC(C)C(C)/C=C/C(C)C1CCC2C3=CC=C4CC(O)CCC4(C)C3CCC21C` (stereo unspecified) has a relative growth of 1.31. `CN1CCN(C(=O)C[C@@H]2CC[C@@H]3[C@H](COC[C@@H](O)CN3S(=O)(=O)c3cccc(Cl)c3)O2)CC1` showed a relative growth of 0.927. Work on `C[C@@H]1COCC(=O)N1` yielded a relative growth of 1.06. In the case of `C=CCOC(=O)[C@H]1[C@@H]2C(=O)O[C@@H](c3ccccc3)[C@@H](c3ccccc3)N2[C@@H](c2ccc(OCCOC(=O)[C@H]3C[C@H]4C(=O)NCC(=O)N4[C@H]3c3ccc(O)cc3)cc2)[C@]12C(=O)Nc1ccccc12`, the relative growth is reported as 0.996. `O=C(C[C@@H]1CC[C@H]2[C@@H](COC[C@@H](O)CN2C(=O)Nc2ccc(Cl)c(Cl)c2)O1)NCc1ccc(Cl)c(Cl)c1` was tested, and the relative growth was 0.966. `NC(=O)c1ccccc1O` showed a relative growth of 1.04. In the case of `C[C@@H]1CN([C@@H](C)CO)S(=O)(=O)c2ccc(C#Cc3ccncc3)cc2O[C@@H]1CN(C)C(=O)C1CCC1`, the relative growth is reported as 0.942. In the case of `CC(=O)N[C@H]1CC[C@@H](CCNC(=O)C2CC2)O[C@@H]1CO`, the relative growth is reported as 0.964. Work on `Nc1ncnc2nc(N3CCCCC3)[nH]c12` yielded a relative growth of 1.11. `NC(=O)CSc1nnnn1-c1cccc(O)c1` gave a relative growth of 1.03. `CC(CCC(=O)O)[C@H]1CCC2C3CC[C@@H]4C[C@H](O)CC[C@]4(C)C3CC[C@@]21C` (stereo partly specified) gave a relative growth of 1.25. Work on `COc1cc2c(cc1OC)-c1cc3ccc(OC)c(OC)c3c[n+]1CC2.[Cl-]` yielded a relative growth of 1.05. Compound `CCC(=O)N[C@@H]1C=C[C@@H](CC(=O)OC)O[C@@H]1CO` has a relative growth of 1.06. In the case of `CC1(C)CCC(c2ccc(Cl)cc2)=C(CN2CCN(c3ccc(C(=O)NS(=O)(=O)c4ccc(N[C@H](CCN5CCOCC5)CSc5ccccc5)c(S(=O)(=O)C(F)(F)F)c4)cc3)CC2)C1`, the relative growth is reported as 1.09. For `CNC[C@H]1Oc2cc(C#CCN(C)C)ccc2S(=O)(=O)N([C@@H](C)CO)C[C@H]1C`, the relative growth was 1.17. Compound `COc1ccc(C(=O)CCC(=O)O)c2ccccc12` has a relative growth of 1.18. `CCc1ccc(NC(=O)Cc2coc3ccc(C(C)C)cc23)cc1` showed a relative growth of 1.04. Compound `Cc1ccc(NC(=O)C[C@@H](N)C(=O)O)cc1` has a relative growth of 0.899. For `Nc1nc(F)nc2c1ncn2[C@@H]1O[C@H](COP(=O)(O)O)[C@@H](O)[C@@H]1O`, the relative growth was 1.03. In the case of `CN1CCN(C(=O)C[C@H]2CC[C@H]3[C@@H](COC[C@H](O)CN3C(=O)C3CCOCC3)O2)CC1`, the relative growth is reported as 1.12. With `COc1cccc(-c2ccc3c(c2)O[C@H](CN(C)C(=O)C2CC2)[C@@H](C)CN([C@H](C)CO)S3(=O)=O)c1` the relative growth was 1.12. In the case of `COc1cc2c(cc1OC)C1C(=O)c3c(O)cc4c(c3OC1CO2)C=CC(C)(C)O4` (stereo not drawn) [alpha-TOXICAROL (dl)], the relative growth is reported as 1.06. Work on `CCOC(=O)N1CCC(=C2c3ccc(Cl)cc3CCc3cccnc32)CC1` yielded a relative growth of 0.967. In the case of `C[C@H]1CN([C@@H](C)CO)S(=O)(=O)c2ccc(C#CCN(C)C)cc2O[C@@H]1CN(C)Cc1ccc(F)cc1`, the relative growth is reported as 0.692. Work on `N[C@H](CC(=O)O)C(=O)O` yielded a relative growth of 1.15. Compound `C[C@@H]1CN([C@@H](C)CO)C(=O)c2cc(C#Cc3ccccc3)cnc2O[C@H]1CN(C)S(=O)(=O)c1ccccc1F` has a relative growth of 1.06. Work on `COc1ccccc1S(=O)(=O)N[C@H]1C=C[C@@H](CC(=O)N2CCN(C)CC2)O[C@@H]1CO` yielded a relative growth of 0.951. Work on `Cl.Nc1ccn([C@@H]2O[C@H](CO)[C@@H](O)C2(F)F)c(=O)n1` yielded a relative growth of 0.845. `CCOc1nn(CC)cc1C(=O)O` was tested, and the relative growth was 1.12. Compound `COc1ccccc1CNC(=O)C[C@@H]1C[C@@H]2c3cc(NC(=O)c4cccnc4)ccc3O[C@@H]2[C@@H](CO)O1` has a relative growth of 1.04. Work on `O=C(Nc1ccccc1C(=O)O)c1nnc[nH]1` yielded a relative growth of 1.11. For `OC[C@@H](O)[C@@H](O)[C@@H](O)CO`, the relative growth was 1.03. For `CCCc1nc(C(C)(C)O)c(C(=O)OCc2oc(=O)oc2C)n1Cc1ccc(-c2ccccc2-c2nn[nH]n2)cc1`, the relative growth was 0.948. `CCN(CC)C(=O)N1CCN(C)CC1.O=C(O)CC(O)(CC(=O)O)C(=O)O` was tested, and the relative growth was 1.1. Compound `COC(=O)C[C@H]1C(C)(C)[C@@H](OC(C)=O)[C@@H]2CC3=C4CC(=O)O[C@@H](c5ccoc5)[C@]4(C)CCC3[C@@]1(C)C2=O` (stereo partly specified) has a relative growth of 0.975. Work on `C=CCOC(=O)[C@H]1[C@@H]2C(=O)O[C@@H](c3ccccc3)[C@@H](c3ccccc3)N2[C@@H](c2ccc(OCCOC(=O)[C@H]3C[C@H]4C(=O)N[C@@H](CCCCNC(C)=O)C(=O)N4[C@H]3c3ccc(O)cc3)cc2)[C@]12C(=O)Nc1ccc(I)cc12` yielded a relative growth of 1.72. `Nc1nc2nc[nH]c2c(=S)[nH]1` showed a relative growth of 0.991. `CCCC(=O)Nc1ccc2c(c1)C(=O)N(C)[C@H]1CC[C@H](CC(=O)NCCN3CCCCC3)O[C@H]1CO2` was tested, and the relative growth was 0.939. Work on `NC(=O)N[C@@H](CCC(=O)O)C(=O)O` yielded a relative growth of 1.36. For `CC(C)OC(=O)c1nnc(N)[nH]1`, the relative growth was 0.943. Compound `CCCC12CN3CC(CCC)(CN(C1)C3[C@@H](O)[C@@H](O)[C@@H](O)CO)C2=O` (stereo partly specified) has a relative growth of 1. `S=C(Nc1ccccc1)Nc1ccc2c(c1)oc1ccccc12` gave a relative growth of 0.59. In the case of `CN(C)CC(=O)N[C@H]1CC[C@H](CCNC(=O)C2CCC2)O[C@H]1CO`, the relative growth is reported as 1.02. `COc1cc(OC)c2c(=O)c(OC)c(-c3ccccc3)oc2c1` gave a relative growth of 0.918. `c1ccc(Oc2nnc(-c3ccccc3)c3ccccc23)cc1` showed a relative growth of 0.997. `Cl.NC(N)=N/C(N)=N/CCc1ccccc1` was tested, and the relative growth was 0.868. `N[C@H](C(=O)O)[C@@H](OCc1ccccc1)C(=O)O` was tested, and the relative growth was 0.968. In the case of `CO[C@@H]1CN(C)C(=O)c2ccc(NC(C)=O)cc2OC[C@@H](C)N(S(=O)(=O)c2cn(C)cn2)C[C@@H]1C`, the relative growth is reported as 1.06. Compound `C[C@H]1CN([C@@H](C)CO)C(=O)c2cc(C#Cc3cccnc3)cnc2O[C@H]1CN(C)Cc1ccc(F)cc1` has a relative growth of 0.945. `O=C(CN1CCOCC1)N[C@@H]1CC[C@H](CCn2cc(C3CCCC3)nn2)O[C@H]1CO` gave a relative growth of 0.995. `CC(=O)O` was tested, and the relative growth was 1.08. With `CC[C@@H](C)c1ccc(NC(=O)c2cc3ccccc3o2)cc1` the relative growth was 1.03. For `COCCOC(=O)N1C(=O)[C@@]2(c3cc(C#CC4(O)CCCCCC4)ccc31)[C@H](c1ccc(O)cc1)N1[C@H](c3ccccc3)[C@H](c3ccccc3)OC(=O)[C@H]1[C@@H]2C(N)=O`, the relative growth was 1.04. `OCCN1CCN(c2ncnc3c2ncn3[C@H]2CN(Cc3ccc(Cl)cc3)C[C@@H](CO)O2)CC1` showed a relative growth of 1.06. `C=CCN1C(=O)[C@]2(O[C@H](CCO)[C@@H]([Si](C)(C)c3ccc(OC)cc3)[C@@H]2C)c2cc(NC(=O)[C@H](C)O)ccc21` gave a relative growth of 0.632. `Cc1ccc(S[C@]2(C(=O)NCCN3CCOCC3)CC(=O)N(Cc3cc(C(F)(F)F)cc(C(F)(F)F)c3)[C@@H]2c2ccc(CO)cc2)cc1` was tested, and the relative growth was 0.872. For `COCC(=O)N(C)C[C@H]1Oc2cc(C#CCC3CCCC3)ccc2S(=O)(=O)N([C@H](C)CO)C[C@H]1C`, the relative growth was 0.763. For `COCC#Cc1ccc2c(c1)O[C@@H](CN(C)C(=O)CN(C)C)[C@@H](C)CN([C@H](C)CO)S2(=O)=O`, the relative growth was 0.984. `O=C(Cc1ccccn1)NCC[C@H]1CC[C@@H](NC(=O)CN2CCOCC2)[C@@H](CO)O1` was tested, and the relative growth was 1.15. Compound `O=C(C[C@@H]1C=C[C@@H](NC(=O)c2ccc(F)cc2)[C@@H](CO)O1)NCc1ccncn1` has a relative growth of 0.97. Work on `Cc1nccn1CC1CCc2c(c3ccccc3n2C)C1=O.Cl` (stereo unspecified) yielded a relative growth of 0.967. `Cc1cc(C)nc(N2CC(=O)NC2=N)n1` was tested, and the relative growth was 0.995. `Cc1ccc(S(=O)(=O)N(C)C[C@@H]2Oc3ncc(C#CCC(C)C)cc3C(=O)N([C@H](C)CO)C[C@H]2C)cc1` showed a relative growth of 0.985. With `CCN(CC)CC#CCOC(=O)C(O)(c1ccccc1)C1CCCCC1.Cl` (stereo unspecified) the relative growth was 1.22. For `O=C1[C@@H]2[C@@H](C(=O)N1CCO)[C@@H]1C=C[C@@H]2C1`, the relative growth was 1.11. Work on `O=C(Cc1cccs1)N1c2ccccc2Sc2ccccc21` yielded a relative growth of 1.03. For `O=C(O)Cc1ccc(-c2ccccc2)cc1`, the relative growth was 0.924. `O=C(O)c1ccc(O)c(O)c1` was tested, and the relative growth was 1.19. With `COc1ccccc1CNC(=O)C[C@@H]1CC[C@@H]2[C@H](COC[C@H](O)CN2C(=O)Nc2ccc(Cl)cc2)O1` the relative growth was 0.927. In the case of `c1ccc(Oc2cccc(Oc3ccccc3)c2)cc1`, the relative growth is reported as 0.884. In the case of `COCC(=O)N(C)C[C@H]1Oc2cc(C#CC(C)(C)O)ccc2S(=O)(=O)N([C@H](C)CO)C[C@H]1C`, the relative growth is reported as 1.08. Compound `COCC(=O)N1C[C@@H](C)[C@H](OC)CN(C)C(=O)c2ccc(NC(=O)c3cc(C)on3)cc2OC[C@@H]1C` has a relative growth of 1.03. Compound `CN(C)CC(=O)N[C@@H]1CC[C@@H](CCn2cc(CN(C)C)nn2)O[C@@H]1CO` has a relative growth of 1.02. For `CC(C)C#Cc1ccc2c(c1)O[C@H](CN(C)C(=O)c1cccc(F)c1)[C@@H](C)CN([C@H](C)CO)S2(=O)=O`, the relative growth was 0.922. Compound `CC(=O)N1CCC2(CCCN2)CC1` has a relative growth of 1.03. Compound `O=C(O)CCN=C1NC(=O)CS1` has a relative growth of 1.1. For `C=CC[C@H](CC(=O)NCCO)C(=O)N[C@H](COC(=O)[C@H](CC=C)CC(=O)OC(C)(C)C)Cc1c[nH]c2ccccc12`, the relative growth was 0.863. For `COCCNC(=O)C[C@H]1CC[C@H](NS(=O)(=O)c2ccc(C)cc2)[C@@H](CO)O1`, the relative growth was 1.03. With `OC[C@@H](O)[C@@H](O)[C@@H](O)/C=N/Nc1ccccc1` the relative growth was 0.949. `COc1ccc(CCNC(=O)c2cc3c(=O)n4cccc(C)c4nc3n(CCCN3CCOCC3)c2=N)cc1` was tested, and the relative growth was 0.898. In the case of `CCCCCCCCCCCCCCCCCCOCC(O)CO` (stereo unspecified), the relative growth is reported as 1.03. Work on `N#Cc1ccc(C(c2ccc(C#N)cc2)n2cncn2)cc1` yielded a relative growth of 1.06. `O=C(C[C@H]1C[C@@H]2c3cc(NC(=O)Nc4ccc(C(F)(F)F)cc4)ccc3O[C@@H]2[C@@H](CO)O1)NC1CCCCC1` was tested, and the relative growth was 1.16. `Clc1ccc(CCC(Cn2ccnc2)Sc2c(Cl)cccc2Cl)cc1` (stereo unspecified) gave a relative growth of 0.997.
